Assay [1] has as its system multiple myeloma tumors (RPMI-8226). The experiment in a line: Anti-tumor activity of cultured anti-BCMA CAR T cells in sub cutaneous multiple myeloma tumor model. It is filed as in vivo, mice. The note with it: 100 mm^3 sub cutaneous RPMI-8226 tumors; 1×10^6 CAR-positive cells infused. The procedure:
Anti-BCMA CAR T cells treated with MK-2206, TCN, or ZSTK474 as described in Example 3 were tested to evaluate whether increased CD62L expression was associated with increased anti-tumor activity. T cells expressing anti-BCMA CARs were generated after culture with IL-2 and either MK2206, TCN, or ZSTK474. […] Animals with 100 mm^3 sub cutaneous multiple myeloma tumors (RPMI-8226) were infused with equivalent CAR T cell doses (1×10^6 CAR-positive cells).

The test system of a further assay is Daudi tumor. The experiment in a line: Anti-tumor activity of cultured anti-BCMA CAR T cells in aggressive Daudi tumor model. In kind it is in vivo. From the text:
A more aggressive and difficult to treat tumor model was used to ascertain the anti-tumor activity of CAR T cells treated with IL-2, MK-2206, TCN, ZSTK474, IL7/15, or vehicle. Daudi tumor cells express a low level of BCMA protein and can be effectively treated using anti-BCMA CAR T cells. Daudi tumor progression was not affected after treatment with IL-2- or IL7/15-cultured anti-BCMA CAR T cells.

For a further assay, the system named is RPMI-8226. Briefly: Persistence of anti-BCMA CAR T cells: RPMI-8226 tumor rechallenge. It is filed as in vivo, mice. The following applies: rechallenged 13 days later with RPMI-8226 on the opposite flank after complete regression. The procedure: Persistence of anti-BCMA CAR T cells was evaluated by re-challenging tumors in mice that had complete regression. Animals treated with IL-2-, MK-2206-, or ZSTK474-cultured anti-BCMA CAR T cells that had completely regressed 100 mm^3 RPMI-8226 tumors were rechallenged 13 days later with RPMI-8226 on the opposite flank.

Take “IL-2: interleukin-2 (CellGenix), standard cytokine in the T cell culture media”: the “anti-tumor activity of anti-BCMA CAR T cells cultured with the agent” value in assay [1] is given as “complete tumor regression”. The “anti-tumor activity (Daudi tumor progression) of anti-BCMA CAR T cells cultured with the agent” value in the assay on Daudi tumor is “not affected”. Moreover, the “tumor outgrowth / engraftment after rechallenge in animals treated with anti-BCMA CAR T cells cultured with the agent” value in the assay on RPMI-8226 is recorded as “unable to prevent tumor outgrowth”.

Source of the values: patent US12644099B2, “Methods for making T cell compositions” (2seventy bio, Inc., priority 2014, dated 2026).
